Assay results published in patent publication US20140161790A1.
pKd: −log10 of the molar value.

Target: human FcRn (heterodimer of alpha chain and beta2-microglobulin) (human) (UniProt P55899)
Assay: Biacore (SPR), column 'hFcRn Affinity (uM)'; antibody captured on anti-hFab CM5 chip, hFcRn as analyte, PBS pH 6.0, 1:1 Langmuir fit

pKd: 5.80
Substance: adalimumab native IgG1 (XENP6755) (antibody)
